# Source: PubChem BioAssay AID624291 (National Center for Advancing Translational Sciences (NCATS), 2012)
# This is a selection; strong and weak results do not stand in their true shares. Results filed as inconclusive are left out. Entries that show only a call come without a potency. Active and inactive are the calls of the source. Calls follow the shape of the dose curve; as a rule, active = well fitted activation curve with a large enough effect; inconclusive = small, poorly fitted or top-dose-only effect; inactive = no such curve, though single readings can be large or run the other way.
# Experiment: qHTS for Activators of Integrin-Mediated Alleviation for Muscular Dystrophy; also: nearly all actives have a fitted effect of over 60% in size
# Details: alpha7betagal myoblasts, beta-gal FDG fluorescence, 48 h; series mostly up to 38.3 µM
# Potency is read from the fitted curve at half-maximal effect.
row,Structure (SMILES),Potency
1,COc1cc(OC)c(C(=O)NCC2(N(C)C)CCCCC2)cc1OC,inactive
2,CN(C)c1cccc(C(=O)NCC2(N3CCCCC3)CCCCC2)c1,inactive
3,O=[N+]([O-])c1cc([N+](=O)[O-])c(OC2CCCCC2O)c([N+](=O)[O-])c1 (stereo unspecified),inactive
4,COc1ccc(CN(CCCl)CCCl)cc1Cl,inactive
5,CC(C)c1ccc(NC2CCN(C(=O)OC(C)(C)C)CC2)cc1,inactive
6,CC(C)c1ccc(C(=O)NCC2(N3CCOCC3)CCCCC2)cc1,inactive
7,COc1ccc(NC2CCN(C(=O)OC(C)(C)C)CC2)cc1,inactive
8,CN1CCN(CCOC(=O)C(O)(c2ccccc2)c2ccccc2)CC1,inactive
9,O=C(NCC1(N2CCOCC2)CCCCC1)c1cc(=O)[nH]c2ccccc12,inactive
10,COc1cc(C(=O)NCC2(N3CCCCC3)CCCCC2)ccc1OC(F)F,inactive
11,O=C(NCC1(N2CCCCC2)CCCCC1)c1cccc(C(F)(F)F)c1,inactive
12,O=[N+]([O-])c1cc([N+](=O)[O-])c(NCC2CCS(=O)(=O)C2)c([N+](=O)[O-])c1 (stereo unspecified),inactive
13,CSc1ccc(C(=O)NCC2(N3CCOCC3)CCCCC2)cc1,inactive
14,O=C(NCC1(N2CCCCC2)CCCCC1)c1cccc([N+](=O)[O-])c1,inactive
15,N#CC1(Nc2ccccc2)CCN(CCc2ccccc2)CC1,inactive
16,CCN1CCC(Nc2ccc(Cl)cc2)CC1,inactive
17,O=C(NCC1(N2CCCCC2)CCCCC1)c1ccc(OC(F)F)cc1,inactive
18,Cc1cc(N(CCCl)CCCl)ccc1C=O,inactive
19,CCCN1CCC(Nc2cc(OC)cc(OC)c2)CC1,inactive
20,c1ccc(CN2CCC(Nc3ccccc3)CC2)cc1,inactive
21,CN(C)C1(CNC(=O)c2cccc(C#N)c2)CCCCC1,inactive
22,CCOC(=O)C(CC)C1=NC(C)(C)Cc2ccccc21.O=[N+]([O-])c1cc([N+](=O)[O-])c(O)c([N+](=O)[O-])c1 (stereo unspecified),inactive
23,CC(C)(C)OC(=O)N1CCC(N(C(=O)c2ccccc2)c2ccc(Cl)cc2)CC1,inactive
24,N#Cc1ccc(C(=O)NCC2(N3CCCCC3)CCCCC2)cc1,inactive
25,O=C(O)c1cccc(Nc2c([N+](=O)[O-])cc([N+](=O)[O-])cc2[N+](=O)[O-])c1,inactive
26,CCc1cc(C(=O)NCC2(N3CCCCC3)CCCCC2)sc1C,inactive

row,Structure (SMILES),Potency
1,O=C(OC1CN2CCC1CC2)C1c2ccccc2C=Cc2ccccc21 (stereo unspecified),inactive
2,N/C(=N\O)c1c(N)no[n+]1[O-],inactive
3,CCOC(=O)N1CCC(Nc2ccc(C)cc2)CC1,inactive
4,COc1ccc(C(=O)NCC2(N3CCOCC3)CCCCC2)cc1OC,inactive
5,O=C(NCC1(N2CCOCC2)CCCCC1)c1cc(Br)ccc1Cl,active: 8.91 µM
6,COc1cc(C(=O)NCC2(N3CCOCC3)CCCCC2)cc(OC)c1C,inactive
7,CN1CCC(Nc2ccc(Cl)cc2)CC1,inactive
8,CCC(CO)(C(=O)OC1CN2CCC1CC2)c1ccccc1 (stereo unspecified),inactive
9,COc1cccc(C(=O)N(c2cc(C)cc(C)c2)C2CCN(C(=O)OC(C)(C)C)CC2)c1,inactive
10,COc1cc(OC)cc(C(=O)NCC2(N3CCOCC3)CCCCC2)c1,inactive
11,CCCOc1ccc(C(=O)NCC2(N(C)C)CCCCC2)cc1,inactive
12,O=C(O)C1(Nc2ccccc2)CCN(Cc2ccccc2)CC1,inactive
13,CC(C)(C)OC(=O)N1CCC(Nc2ccccc2)CC1,inactive
14,CN1CCC(Nc2ccc(F)c(Cl)c2)CC1,inactive
15,CCOc1ncccc1C(=O)NCC1(N2CCOCC2)CCCCC1,inactive
16,CN(C)c1ccc(C(=O)NCC2(N3CCCCC3)CCCCC2)cc1,inactive
17,Cn1c(=O)[nH]cc(N(CCCl)CCCl)c1=O,inactive
18,CCN1CCC(Nc2cccc(F)c2)CC1,inactive
19,Cc1ccccc1NC1(C#N)CCN(Cc2ccccc2)CC1,inactive
20,Cc1ccc(NC2(C#N)CCN(Cc3ccccc3)CC2)cc1,inactive
21,Fc1ccccc1NC1CCN(Cc2ccccc2)CC1,inactive
22,Cc1ccc(Nc2c([N+](=O)[O-])cc([N+](=O)[O-])cc2[N+](=O)[O-])cc1,inactive
23,Cc1ccc(C(=O)NCC2(N3CCCCC3)CCCCC2)o1,inactive
24,COc1cc(OC)cc(C(=O)NCC2(N3CCCCC3)CCCCC2)c1,inactive
25,CC(=O)N(c1ccccc1)C1CCNCC1,inactive
